scFv variants of Ab-95 (light chain) against a SARS-CoV-2 spike peptide

Reference: Engelhart et al. 2022, doi:10.1038/s41597-022-01779-4. File: FLAb, binding data.

The target is the same throughout: PDVDLGDISGINAS, from the HR2 region of SARS-CoV-2 spike.

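Phage display of a naive human antibody library on the peptide gave the parent. The library (AAYL52) carries one to three amino acid substitutions per variant, with no insertions or deletions. AlphaSeq pools MATa yeast showing the antibodies with MATalpha yeast showing the peptide. The frequency of each diploid, read from paired DNA barcodes, reflects how well the two displayed proteins bind. Scores were corrected for input abundance and mapped to Kd with protein pairs of known affinity run in the same pool. Each pool was mated in three replicate cultures.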

Ab-95 is the parent antibody, in scFv form: VH, then three GGGGS repeats, then VL. The heavy chain is unchanged in all variants.
VH: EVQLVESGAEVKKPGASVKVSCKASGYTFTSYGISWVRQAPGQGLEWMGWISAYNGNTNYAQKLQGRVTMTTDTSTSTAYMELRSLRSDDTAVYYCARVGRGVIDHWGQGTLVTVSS
VL: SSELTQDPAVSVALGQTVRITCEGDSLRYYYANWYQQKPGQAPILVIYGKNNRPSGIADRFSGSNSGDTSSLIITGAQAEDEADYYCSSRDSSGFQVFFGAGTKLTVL

The parent's light chain CDRs are EGDSLRYYYAN, GKNNRPS, SSRDSSGFQVF; each variant's own CDRs replace them letter for letter.
Every variant below is changed at R28 of the VL (sequential numbering).
The Kd shown is the geometric mean over detected replicates; a lower Kd is a better binder.
A pair that was not seen in any replicate is written "no signal"; this usually means weak binding, but a binder can also be missed.
For reference, the parent read 200 nM as the reference entry and 180 nM as a member of this library.
Nonspecific signal, from three strains lacking the peptide, appeared in 28% of pairings of library AAYL52, centred on 8.2 µM (5% of these signals below 800 nM); values are not corrected for it. Also given: how often the same scFv was detected with the empty control strains.

For EGDSLIYYYAN / GKNNRPS / SSQDSSGFQVF, the assay gave 3.4 µM (1 of 3 replicates; controls 2 of 9). With EGDSLLYYYAN / GKNNRPS / SLRDSSGFTVF the result was 35 µM (1 of 3 replicates; controls 0 of 9). For VGDSLWYYYAN / GKNNRPS / SSRPSSGFQVF, the assay gave 110 µM (1 of 3 replicates; controls 2 of 9). For EGDSLGYYYAN / GKNNRPS / SSRDSMGFQVF, the assay gave 3.7 µM (3 of 3 replicates; controls 3 of 9). For EGWSLTYYYAN / GKNNRPS / SSRDSTGFQVF, the assay gave 190 nM (3 of 3 replicates; controls 2 of 9). The variant EGDSLYYYYAN / GKNNRPC / CSRDSSGFQVF gave 17 µM (3 of 3 replicates; controls 4 of 9). The variant EGDSLAYYNAN / GMNNRPS / SSRDSSGFQVF showed 8.6 nM (3 of 3 replicates; controls 3 of 9). For EGDSLHYYYAN / GKNNRPS / SSRDSLGFAVF, the assay gave 300 nM (3 of 3 replicates; controls 6 of 9).

For EGDSLLYYYAN / GKHNRPS / SSRDSSGFQDF, the assay gave no signal (0 of 3 replicates; controls 1 of 9). The variant ELDSLYYYYAN / GKNNRPS / SSLDSSGFQVF gave 1.5 µM (2 of 3 replicates; controls 4 of 9). The variant EGDWLYYYYAN / GKNNRPS / SSRDSSKFQVF showed no signal (0 of 3 replicates; controls 1 of 9). The variant EGWSLMYYYLN / GKNNRPS / SSRDSSGFQVF gave no signal (0 of 3 replicates; controls 2 of 9). With ERDWLDYYYAN / GKNNRPS / SSRDSSGFQVF the result was 550 nM (3 of 3 replicates; controls 3 of 9). For EGDSLMYYYAN / GKNNRPS / SSRTSSCFQVF, the assay gave 750 nM (1 of 3 replicates; controls 4 of 9). For EGDSLLYYYSN / GKNNRPS / SSRDSSGFVVF, the assay gave 400 µM (1 of 3 replicates; controls 6 of 9). For EGDSLSYYYAN / VKNNRPS / SDRDSSGFQVF, the assay gave no signal (0 of 3 replicates; controls 1 of 9).

With EGDSLGYYYAN / GKNNRPA / SSRDSSGFQVF the result was 140 nM (3 of 3 replicates; controls 2 of 9). With EGDSLHYYYAN / GKNSRPS / SSRDSSGGQVF the result was 480 nM (3 of 3 replicates; controls 5 of 9). The variant EGDSLWYYYAN / GKNNRYS / KSRDSSGFQVF gave 15 µM (1 of 3 replicates; controls 3 of 9). For ELDSLTYYYAN / GKNNRPS / SSRDSSGFLVF, the assay gave 8.9 µM (1 of 3 replicates; controls 2 of 9). For EGDSLWYYYAN / GKNNRPS / SSRDRSQFQVF, the assay gave 1.2 µM (3 of 3 replicates; controls 2 of 9). The variant EGHSLSYYYAN / GKNNRPS / SSRDTSGFQVF showed 130 nM (3 of 3 replicates; controls 7 of 9). With EGDILLYYYAN / GKNNRPS / SSRDSSHFQVF the result was 5.7 µM (1 of 3 replicates; controls 4 of 9). For EGDTLTYYYAN / GKWNRPS / SSRDSSGFQVF, the assay gave no signal (0 of 3 replicates; controls 5 of 9).

For EGDSLGYYYAN / GKNNRPS / SSRHSSGFQNF, the assay gave 1.2 µM (3 of 3 replicates; controls 1 of 9). The variant EGDSLFYSYAN / GKNNRPS / SSRDSSGFQVF gave 7.4 nM (3 of 3 replicates; controls 6 of 9). For EGDSLYYYYAN / GKNNRPS / SWRDSSGFQLF, the assay gave 1.7 µM (3 of 3 replicates; controls 4 of 9). The variant EGDSLWYYYAN / GKNNRPT / SSRDSSGFQVW gave 810 nM (3 of 3 replicates; controls 3 of 9). With EGDSLWYYYAN / GKNNRPS / SSRDDSGKQVF the result was 12 µM (2 of 3 replicates; controls 2 of 9). The variant EGDSLLYYYAN / GKNNRPS / EQRDSSGFQVF gave 16 µM (1 of 3 replicates; controls 1 of 9). The variant EGDSLTYYYAN / GKNNRPS / SARDSSGFQVW showed 110 nM (3 of 3 replicates; controls 6 of 9). With EGDSLLYYYAN / GKNNRPS / SSRDSSGFQVF the result was 180 nM (3 of 3 replicates; controls 2 of 9).

The variant EGDQLSYYYAN / GKNNRPS / SSDDSSGFQVF gave 3.0 µM (1 of 3 replicates; controls 1 of 9). The variant EGDSLGYYYAN / GKNNRPS / SKLDSSGFQVF showed 1.6 µM (1 of 3 replicates; controls 0 of 9). The variant EGDQLPYYYAN / GKNNRNS / SSRDSSGFQVF showed 65 µM (1 of 3 replicates; controls 2 of 9). For EGDSIVYYYAN / GKNNRPS / SSRDCSGFQVF, the assay gave no signal (0 of 3 replicates; controls 0 of 9). With EGDSLQYYYAN / GKNSRPS / SSRDSSGFIVF the result was 1.6 µM (3 of 3 replicates; controls 7 of 9). With EGDSLFYYYAN / GKNNQPF / SSRDSSGFQVF the result was 120 µM (1 of 3 replicates; controls 2 of 9). With EGFSLLQYYAN / GKNNRPS / SSRDSSGFQVF the result was 1.1 µM (2 of 3 replicates; controls 2 of 9). With EGDSLVYYYAN / GKNNLPS / SSRDSSGFQVF the result was 6.0 µM (3 of 3 replicates; controls 1 of 9).

The variant EGDSLTYGYAN / GKNNRPS / SSRDSSGFQQF gave 320 nM (3 of 3 replicates; controls 4 of 9). The variant EGDSLSYYYAN / GKNNRPS / SSLDSSGAQVF gave 320 nM (3 of 3 replicates; controls 2 of 9). The variant EGDSLKWYYYN / GKNNRPS / SSRDSSGFQVF showed 35 µM (2 of 3 replicates; controls 3 of 9). The variant PGDSLQYYYAN / GKNNRPS / SSRDSSGFQNF showed 5.4 µM (3 of 3 replicates; controls 1 of 9). The variant EGDSLCYYYAN / GKNNRPS / SSRDSSGFQVF gave 280 nM (3 of 3 replicates; controls 2 of 9). The variant EGDSLEYYYAN / GKFNRPS / SSRFSSGFQVF showed 12 µM (2 of 3 replicates; controls 4 of 9). The variant EGDSLIYYYAN / GKNNRPV / SSYDSSGFQVF showed 2.3 µM (1 of 3 replicates; controls 0 of 9).

Excerpt, the final 3 entries:

CDR-L1	CDR-L2	CDR-L3	Kd (apparent)	detected	control signals
EGDSLCYYYAN	GKNNRPS	SSRDSSGFQVF	280 nM	3 of 3	2 of 9
EGDSLEYYYAN	GKFNRPS	SSRFSSGFQVF	12 µM	2 of 3	4 of 9
EGDSLIYYYAN	GKNNRPV	SSYDSSGFQVF	2.3 µM	1 of 3	0 of 9